Data on 103 compounds can be found in PubChem BioAssay AID2006 (Sanford-Burnham Center for Chemical Genomics, 2009).

Amino acid sequences for entries named in this document (tags omitted).
UniProt P63279, whole entry, looked up: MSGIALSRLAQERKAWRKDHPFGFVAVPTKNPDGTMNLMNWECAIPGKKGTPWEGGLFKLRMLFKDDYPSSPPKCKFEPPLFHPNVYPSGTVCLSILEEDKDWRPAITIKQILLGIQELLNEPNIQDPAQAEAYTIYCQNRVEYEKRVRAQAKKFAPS

Several values for one entry are separate records, joined by “and”; a condition that tells them apart may be missing. Equal entries are not always repeated. The entries are a selection whose mix differs from that of the whole data set. Activity calls are given as the source filed them. Cut-off read from the data, not from the text of the source: active = inhibition above about 50% (passing the limit was not always enough); inconclusive = no clear call, values can overlap the other calls.

Broadly, the inhibition is the drop in the measured response relative to a control, in per cent.

For this assay, the target named is SUMO-conjugating enzyme UBC9 (Homo sapiens) (UniProt P63279). The assay can be described thus: blockers of SAE1/SAE2–UBC9 SUMO transfer – biochemical, HTRF, uHTS, primary screen (AID 2006). The note with it: HTRF SUMOylation assay, SAE1/SAE2 + UBC9, in vitro; at 35 µM; stronger effect = higher value. In general terms: TR-FRET usually uses a lanthanide donor and a delayed reading to cut background.
In the case of `Cc1nn(-c2ccccc2)c2c1P(=O)(N1CCOCC1)N(C)C(c1ccccc1)=N2` (stereo not drawn), the inhibition is inactive: -0.7%.
The same measure for `CC1CCC(C(C)C)C(OP(=O)(Nc2ccccn2)c2ccccc2)C1` (stereo not drawn): inactive: -12.9%.
The same measure for `Cc1ccc(C(=O)OC2CN3CCC2CC3)cc1` (stereo not drawn): inactive: -6%; for `CN(C)C1(CNC(=O)c2ccc(S(C)(=O)=O)cc2)CCCCC1`: inactive: 13.5%; for `O=C(/C=C/c1ccccc1)OC1CN2CCC1CC2` (stereo not drawn): inactive: -10.3%.
The same measure for `O=P1(Nc2ncccn2)COc2ccccc2OC1`: inactive: 1.6%; for `Nc1cccc([As](=O)(O)c2ccccc2)c1`: inactive: 14.4%.
Turning to `O=P1(Nc2ccc(Br)cn2)COc2ccccc2OC1`, the inhibition is inactive: 5.4%.
The same measure for `Cc1ccc(OCC(=O)OC2CN3CCC2CC3)cc1` (stereo not drawn): inactive: -3.1%.
The same measure for `O=[As](O)(c1cccs1)c1cccs1`: inactive: 21.3%; for `O=P1(Nc2ccccn2)COc2ccccc2OC1`: inactive: 8.4%.
The same measure for `CCC1=CC2Cc3nc4ccc(Cl)cc4c(N)c3C(C1)C2` (stereo not drawn): inactive: 8.4%; for `CCOP(=O)(NC(=NC(C)c1ccccc1)NC(C)c1ccccc1)OCC` (stereo not drawn): inactive: 12.4%.
Consider `CCOP(=O)(Nc1ccc(C)cn1)OCC`, for which the inhibition is inactive: 18.7%.
The same measure for `Clc1n[nH]nc1-c1nn[nH][15n]1`: inactive: 21.7%; for `CC(C)(C)C(=O)NC(Sc1ncccn1)C(Cl)(Cl)Cl` (stereo not drawn): inactive: 1%.
The same measure for `CC(C)/C=N\N=C(\N)N[N+](=O)[O-]`: inactive: 10.4%.
Regarding `CN(C(=O)Cc1ccc(Cl)c(Cl)c1)[C@@H]1CCCC[C@H]1N1CCCC1`, the inhibition is inactive: 18.1%.
The same measure for `O=[As](O)(c1ccccc1Br)c1ccccc1Br`: inactive: 14.1%.
The same measure for `O=C(OC1CN2CCC1CC2)c1ccc(Cl)cc1` (stereo not drawn): inactive: 5.9%.
As for `COc1cc(C(=O)NCC2(N3CCOCC3)CCCCC2)cc(Cl)c1OC(C)C`, the inhibition was inactive: 2.7%.
As to `O=[As](O)(O)c1cccnc1`, the inhibition was inactive: 13.9%.
As for `CS(=O)(=O)c1ccc(Cl)c(NC(=O)COC(=O)C(O)(c2ccccc2)c2ccccc2)c1`, the inhibition is inactive: -17%.
Consider `O=[As](O)(c1cccc(O)c1)c1cccc(O)c1`, for which the inhibition was inactive: 13%.
The same measure for `Cc1cccc(OCC(=O)OC2CN3CCC2CC3)c1` (stereo not drawn): inactive: -13.4%; for `Cc1ccc(NCCc2c([N+](=O)[O-])cc([N+](=O)[O-])cc2[N+](=O)[O-])cc1`: inactive: 30.1%.
For `CCCOP(=S)(Nc1nc(N)cc(=O)[nH]1)OCCC`, the inhibition was inactive: 10.1%.
`COc1cc(C2NCCC3(OCCO3)C2(C)C)cc(OC)c1OC` (stereo not drawn): the inhibition is inactive: -9.1%.
On to `CCOP(=O)(Nc1cccc2ccccc12)OCC`, for which the inhibition is inactive: 1.2%.
The same measure for `CCOP1(=S)c2c(C)nn(CCC#N)c2N=C(c2ccccc2F)N1C` (stereo not drawn): inactive: -12.3%.
The same measure for `O=P(Nc1nccs1)(c1ccccc1)c1nc2ccccc2s1` (stereo not drawn): inactive: 2.2%; for `O=P(Nc1nccs1)(Oc1ccccc1)Oc1ccccc1`: inactive: 9.4%.
For the compound `CS(=O)(=O)c1cc([N+](=O)[O-])c2no[n+]([O-])c2c1`, the inhibition is inactive: 29.8%.
`Nc1ccccc1[As](=O)(O)c1ccccc1`: the inhibition was inactive: 14%.
The same measure for `O=C(O)COc1ccc([As](=O)(O)O)cc1[N+](=O)[O-]`: inactive: -0.4%; for `NC(=O)Nc1ccc([As](=O)(O)O)cc1`: inactive: 20.7%.
Take `CN(C(=O)Cc1ccccc1)[C@@H]1CC[C@]2(CCCO2)C[C@H]1N1CCCC1`: the inhibition was inactive: -3.1%.
As to `CCOP1(=S)c2c(C)nn(CCC#N)c2N=C(c2ccc(F)cc2)N1C` (stereo not drawn), the inhibition is inactive: 3.3%.
The same measure for `O=[N+]([O-])c1ccc2c(c1)nnn2O`: inactive: 1%.
The same measure for `O=[As](O)(c1ccc(O)cc1)c1ccccc1O`: inactive: 1%.
The same measure for `C[As](=O)(O)c1cccc(C(=O)O)c1`: inactive: 14.6%.
`Cc1ccc(OP(=O)(Nc2ccc([N+](=O)[O-])cn2)Oc2ccc(C)cc2)cc1`: the inhibition is inactive: 15.6%.
Regarding `Cc1ccc2nc3c(c(C)c2c1)CC(C(Cl)Cl)S3` (stereo not drawn), the inhibition was inactive: -25.4%.
The same measure for `ClCCSc1nnc(-c2cccnc2)o1`: inactive: 13.7%; for `CC(C)c1ccc(OP(=O)(Nc2ccccn2)Oc2ccccc2F)cc1` (stereo not drawn): inactive: 9.2%.
The same measure for `CCN(CC)C(=S)SC(NC=O)C(Cl)(Cl)Cl` (stereo not drawn): inactive: -20.8%; for `CC(C)NC(=O)NP(=O)(Oc1ccccc1)Oc1ccccc1`: inactive: 31%; for `Cc1c2c(nc3ccccc13)SC(C(Cl)Cl)C2` (stereo not drawn): inactive: 17.6%.
On to `O=C(OC1CN2CCC1CC2)C12CC3CC(CC(C3)C1)C2` (stereo not drawn), for which the inhibition was inactive: -5.3%.
The same measure for `Cc1cc(=O)[nH]c(N[N+](=O)[O-])n1`: inactive: 4.9%; for `COc1ccc2nc(NP(=O)(c3ccccc3)c3ccccc3)sc2c1`: inactive: 4.2%.
The same measure for `COc1cc(I)ccc1[As](=O)(O)O`: inactive: -0.4%; for `COc1ccc(N/C(=N/P(=O)(N2CCOCC2)N2CCOCC2)N2CCOCC2)cc1`: inactive: -9.6%; for `COP1(=S)c2c(C)nn(CCC#N)c2N=C(c2ccc(F)cc2)N1C` (stereo not drawn): inactive: -1.4%.
In the case of `O=C(COc1ccccc1)OC1CN2CCC1CC2` (stereo not drawn), the inhibition is inactive: 11.1%.
As to `O=C(Nc1ccncc1[N+](=O)[O-])c1ccc([N+](=O)[O-])cc1[N+](=O)[O-]`, the inhibition was inactive: 10.4%.
`O=C(OC1CN2CCC1CC2)c1cccc([N+](=O)[O-])c1` (stereo not drawn): the inhibition is inactive: 0.8%.
Regarding `CCOC(=O)c1ccc(NC(=O)C(C)(CCl)SC)cc1` (stereo not drawn), the inhibition was inactive: -0.9%.
The same measure for `CCC(C)N(CC(C)C)C(=S)SC(NC(C)=O)C(Cl)(Cl)Cl` (stereo not drawn): inactive: 19.1%.
In the case of `CCOC(=O)Nc1ccc([As](=O)(O)O)c(O)c1`, the inhibition was inactive: 27.7%.
Take `CCCCOc1ccc(C(=O)NCC2(N3CCCCC3)CCCCC2)cc1OC`: the inhibition was inactive: 7.5%.
Consider `Cc1cc(SC(NC(=O)c2ccccc2)C(Cl)(Cl)Cl)nc(C(C)C)n1` (stereo not drawn), for which the inhibition was inactive: 14.3%.
Turning to `CCOC(=O)Nc1cccc([As](=O)(O)O)c1`, the inhibition is inactive: 15.6%.
The same measure for `O=P(Nc1ccccn1)(c1cccc2ccccc12)c1cccc2ccccc12`: inactive: -3.6%; for `Cc1cc(SC(NC=O)C(Cl)(Cl)Cl)ncn1` (stereo not drawn): inactive: 23.7%.
The same measure for `O=[N+]([O-])c1ccc(Nc2ccc(Oc3ccc([N+](=O)[O-])cc3[N+](=O)[O-])cc2)c([N+](=O)[O-])c1`: inactive: 11.9%; for `O=C(Nc1cc([As](=O)(O)O)ccc1O)c1ccccc1`: inactive: 12.4%.
The same measure for `O=[N+]([O-])c1ncn(CCn2ncnc2[N+](=O)[O-])n1`: inactive: 4.4%.
Consider `CC(C)(C)C(=O)NC(Sc1ccncn1)C(Cl)(Cl)Cl` (stereo not drawn), for which the inhibition was inactive: 18.6%.
The same measure for `O=C(O)CNc1ccc([As](=O)(O)O)cc1`: inactive: 14.8%; for `O=[N+]([O-])c1cccc(NC2=NCC(CBr)S2)c1` (stereo not drawn): inactive: 1%.
The same measure for `COc1ccc(C2=NCC(CBr)S2)cc1` (stereo not drawn): inactive: 5.1%; for `Cc1ccc(NP(=O)(Oc2ccccc2)Oc2ccccc2)nc1`: inactive: 26.3%.
For the compound `CCc1nc2c(n1)c1c(non1O)c1c2no[n+]1[O-]`, the inhibition was inactive: 31.4%.
The same measure for `O=[N+]([O-])c1cc([N+](=O)[O-])c(CCNc2ccccc2)c([N+](=O)[O-])c1`: inactive: 17.4%; for `O=[N+]([O-])c1cccc2n[nH]nc12`: inactive: 8.1%; for `CC(=O)N1C2C3N(C(C)=O)C1C1N(C(C)=O)C(C(N1C(C)=O)N3C(C)=O)N2C(C)=O`: inactive: 28.5%.
`CCN(/C(=N/P(=O)(N1CCOCC1)N1CCOCC1)N1CCOCC1)c1ccc(OC)cc1`: the inhibition is inactive: -8.7%.
For `Nc1ccc([As](=O)(O)c2ccc(N)cc2)cc1`, the inhibition is inactive: -3.8%.
The same measure for `C[N+]1=C2C=CC=CC=C2SC12C([N+](=O)[O-])=CC([N+](=O)[O-])=C[C-]2[N+](=O)[O-]` (stereo not drawn): active: 61.1%; for `CC1CCN(C(=O)Oc2c(Cl)cc(Cl)c3cccnc23)CC1`: inactive: -8.8%; for `CC(C)=N/N=C(\N)N[N+](=O)[O-]`: inactive: 2.2%.
The same measure for `CN(C)C(=O)OCCc1n(C)cc[n+]1C`: inactive: -8.4%.
The same measure for `Cc1ccc(N/C(=N/P(=O)(N2CCOCC2)N2CCOCC2)N2CCOCC2)cc1`: inactive: 6.6%.
As to `NC(=O)c1cc([N+](=O)[O-])cc([N+](=O)[O-])c1N`, the inhibition is inactive: -0.1%.
The same measure for `Clc1ccc(Cl)c(NC2=NCC(CBr)S2)c1` (stereo not drawn): inactive: -19.2%; for `CN1CCCC(OC(=O)C(c2ccccc2)c2ccccc2)C1` (stereo not drawn): inactive: 17.6%; for `COc1ccccc1OP(=O)(Nc1ccc(C)cn1)Oc1ccccc1OC`: inactive: 3.2%.
The same measure for `Cc1ccc(OP(=O)(Nc2nccs2)Oc2ccc(C)cc2)cc1`: inactive: 13.8%.
The same measure for `Oc1ccccc1CNc1ccccn1`: inactive: -12.6%; for `Cc1c2non([O-])c-2c(C)[n+](=O)[n+]1[O-]`: inactive: 13.5%.
Consider `O=C(NC(Sc1ccncn1)C(Cl)(Cl)Cl)c1ccccc1` (stereo not drawn), for which the inhibition is inactive: 3%.
The same measure for `CC(C)CC(=O)NC(Sc1ccc(Cl)cc1)C(Cl)(Cl)Cl` (stereo not drawn): inactive: 9.4%.
The same measure for `Nc1cc(N)c2nonc2c1[N+](=O)[O-]`: inactive: 22%; for `O=P(Nc1nc2ccc(Cl)cc2s1)(c1ccccc1)c1ccccc1`: inactive: -1.7%.
The same measure for `O=C(O)c1ccccc1[As](=O)(O)O`: inactive: 16.2%; for `CC(=O)Nc1ccc([As](=O)(O)O)cc1`: inactive: 22%; for `CCOP(=O)(Nc1ccccc1)OCC`: inactive: 19.8% and inactive: 8.7%.
For `Cc1cc(SC(NC(=O)c2ccc(F)cc2)C(Cl)(Cl)Cl)ncn1` (stereo not drawn), the inhibition is inactive: 7.8%.
The same measure for `Cc1ccc(NP(=O)(Oc2ccccc2F)Oc2ccccc2F)nc1`: inactive: 11.2%; for `O=[N+]([O-])c1cc([N+](=O)[O-])c(CCN2CCOCC2)c([N+](=O)[O-])c1`: inactive: 23.5%.
The same measure for `CCN(N=Nc1nonc1N)c1nonc1N`: inactive: 4.2%; for `c1ccc(-c2nn[nH]n2)c(-c2nn[nH]n2)c1`: inactive: -15.4%.
